Target: T1, aryl hydrocarbon receptor (AHR) (Homo sapiens, UniProt P35869)
T1 sequence (P35869 11-848): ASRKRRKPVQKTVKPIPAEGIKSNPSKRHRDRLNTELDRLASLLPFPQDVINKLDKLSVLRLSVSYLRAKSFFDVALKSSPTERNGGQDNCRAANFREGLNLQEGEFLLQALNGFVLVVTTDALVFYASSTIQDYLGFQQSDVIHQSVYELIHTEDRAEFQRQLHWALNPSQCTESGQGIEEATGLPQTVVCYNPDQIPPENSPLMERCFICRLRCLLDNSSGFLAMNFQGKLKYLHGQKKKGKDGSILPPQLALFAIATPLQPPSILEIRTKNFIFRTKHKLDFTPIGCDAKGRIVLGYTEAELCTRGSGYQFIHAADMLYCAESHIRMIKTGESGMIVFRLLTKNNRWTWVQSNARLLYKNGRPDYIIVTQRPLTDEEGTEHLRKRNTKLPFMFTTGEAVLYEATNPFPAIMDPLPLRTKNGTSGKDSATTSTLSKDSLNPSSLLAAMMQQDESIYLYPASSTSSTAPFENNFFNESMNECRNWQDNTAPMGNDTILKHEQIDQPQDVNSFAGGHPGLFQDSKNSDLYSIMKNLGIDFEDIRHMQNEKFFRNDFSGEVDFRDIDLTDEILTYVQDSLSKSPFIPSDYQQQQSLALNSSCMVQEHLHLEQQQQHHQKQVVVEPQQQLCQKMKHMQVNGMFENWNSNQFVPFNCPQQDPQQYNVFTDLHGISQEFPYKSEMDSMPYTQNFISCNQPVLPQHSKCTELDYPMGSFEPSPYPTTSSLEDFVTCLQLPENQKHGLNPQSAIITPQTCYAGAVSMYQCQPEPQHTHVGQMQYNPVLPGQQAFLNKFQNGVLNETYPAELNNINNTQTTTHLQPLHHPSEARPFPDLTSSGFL
Assay: XRE-driven luciferase reporter assay, human HepG2

Row | SMILES | XRE luciferase Emax (fold) (Human HepG2, fold over vehicle) | EC50 (XRE luciferase EC50, Human HepG2, least square curve fitting, >10,000 = does not reach 50% of Emax of ITE at 10 μM (highest concentration tested)) [nM]
1 | COC(=O)c1cccc(C(=O)c2c[nH]c3ccccc23)n1 [Compound 10, methyl 6-(1H-indole-3-carbonyl)pyridine-2-carboxylate] | 57 | 
2 | COC(=O)c1ccc(C(=O)c2c[nH]c3ccccc23)s1 [Compound 24] |  | 860

Reference: US12152016B2, “Aryl hydrocarbon receptor modulators and uses thereof” (Beth Israel Deaconess Medical Center, Inc., priority 2018, dated 2024)
